Apparent affinities of Ab-14 variants for a coronavirus HR2 peptide

Antigen: PDVDLGDISGINAS, a 14-residue peptide of the SARS-CoV-2 spike HR2 region.

Each scFv is VH, a (GGGGS)3 linker, VL, as in the parent Ab-14, and differs from it in the CDRs of the heavy chain only.
VH: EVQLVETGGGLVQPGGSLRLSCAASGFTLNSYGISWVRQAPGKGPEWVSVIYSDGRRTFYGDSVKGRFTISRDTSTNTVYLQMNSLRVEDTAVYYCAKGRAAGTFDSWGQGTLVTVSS
VL: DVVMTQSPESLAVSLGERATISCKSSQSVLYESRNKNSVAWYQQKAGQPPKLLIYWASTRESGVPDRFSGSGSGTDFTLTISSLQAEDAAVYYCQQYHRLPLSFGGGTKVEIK

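The parent was found by panning a naive human phage display library on the peptide. The library (AAYL49) carries one to three amino acid substitutions per variant, with no insertions or deletions. AlphaSeq pools MATa yeast showing the antibodies with MATalpha yeast showing the peptide. Pairs that bind mate more often; barcode pairs of the diploids are counted by sequencing. Each replicate has its own calibration line, from reference interactions of the BCL2 family. Mating was done three times.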

Each variant is given by its three heavy chain CDRs, as the data file delimits them; those of the parent are GFTLNSYGIS, VIYSDGRRTFYGDSVK, GRAAGTFDS. The read-out is the apparent dissociation constant on a log10 scale (nM): the lower, the stronger. Replicates are averaged; those with no signal do not enter the mean. An entry "not detected" has no value in the source: the pair was not observed among the diploids in any replicate. This suggests poor binding but is not conclusive.

| CDR-H1 | CDR-H2 | CDR-H3 | mean, log10 nM | detected |
|---|---|---|---|---|
| GFTLNSYGIS | VIYSDGRRTFYGDTVK | GRAAGTIDP | 3.90 | 2/3 |
| GFTLNSDGIS | VIYSDGRMTFYGDMVK | GRAAGTFDS | 3.36 | 1/3 |
| GFTLNSYGES | VICSDGRRTFAGDSVK | GRAAGTFDS | not detected | 0/3 |
| GFQLNMYGIS | VIYSDGRRTFLGDSVK | GRAAGTFDS | 2.54 | 3/3 |
| GFTLNSYGIS | VIYRDGRRTFYGGSPK | GRAAGTFDS | not detected | 0/3 |
| GFTLNSYGIS | VIYSDGRRTDYGDSFK | GVAAGTFDS | 4.51 | 3/3 |
| GLTLMSYGIS | VIYSDGRRTFYGDMVK | GRAAGTFDS | 2.23 | 3/3 |
| GFTLNSYGIS | VIVSDGRRTFYGDSHK | GRAAGTFDF | not detected | 0/3 |
| GFTLNGYGIS | VIYSDGRREFYGDSVK | GRAAGTFAS | 3.35 | 1/3 |
| GFTLASYIIS | VIYSDGRRTFYGDSVK | GRAAGTTDS | not detected | 0/3 |
| GFTLNSYGIS | VIYASGRRTFYGDGVK | GRAAGTFDS | 3.19 | 2/3 |
| GFTLNSYGIS | VIYSKQRRTFYGDSVK | GRAAGTFDS | not detected | 0/3 |
| GFTLNSYGIS | VWYSDGRRTFYGDSVW | GRAAGTFDV | not detected | 0/3 |
| GFTLNSYGIS | VKYSDGRRTFYGYMVK | GRAAGTFDS | not detected | 0/3 |
| GFTLNSYGIS | VIYSPGRCTFYGDSVK | GRAAGTFDS | not detected | 0/3 |
| GFTLNSYGIS | VIYSDGVRTFYGDSVK | WIAAGTFDS | 0.70 | 3/3 |
| GFTDNSYGIS | PIYSDGRRTFYGDSVK | QRAAGTFDS | 4.07 | 2/3 |
| GFTLNSYGIS | VIYGDGRRTMYGDSVK | GRAAGTQDS | not detected | 0/3 |
| GFTLNSYGIS | VIYVDGRRTFYMDSVK | GRAAGTFDS | 2.51 | 3/3 |
| GRPLNSYGIS | LIYSDGRRTFYGDSVK | GRAAGTFDS | 4.82 | 2/3 |
| GFKLNIYGIS | VIYSDGERTFYGDSVK | GRAAGTFDS | 1.99 | 3/3 |
| GFTLNSYGIS | VIYSDGRRTFVGDSVK | GRACGTFDN | 4.33 | 1/3 |
| GFTLNSYGIS | VIYSDGRRTFYCDSVK | GRAASTFDR | not detected | 0/3 |
| GFNLNSYGIF | VIYMDGRRTFYGDSVK | GRAAGTFDS | not detected | 0/3 |
| GFTLNSYGIS | VKYSDGRRTFYGDSVK | TRAAGYFDS | 2.97 | 1/3 |
| GFTLNQYGIE | VIYSDGRRTFYGDSVK | GRAAGTFDS | not detected | 0/3 |
| GFTLNSYGIS | VCYSDLRRTFYGDSVK | GRAAGTFDY | not detected | 0/3 |
| GFTLNSYGCV | VIYSDGRRTFYGDSVK | GRAAGTFDS | 4.00 | 2/3 |
| GFTLNSYGYS | IIYSDGRRTFYGDSVK | GRLAGTFDS | 4.47 | 1/3 |
| GFTLASYGIS | VIYSDGRRTFYADSVK | GRAAGTFVS | 0.31 | 3/3 |
| GFTDNSYGIS | VIYSDKRRTFYGDSVK | GRAARTFDS | 4.47 | 1/3 |
| GFTTNSYGIS | EIYSDGRRTFYGDSVK | GPAAGTFDS | not detected | 0/3 |
| GFTLNSYGIS | VICSIGRRTFYGDSVW | GRAAGTFDS | not detected | 0/3 |
| GETLNSYGIS | VIYSDGSRTFYGDSVK | GRAAGFFDS | not detected | 0/3 |
| GFTLNTYGIS | SIYSDGRRTFYGDSVK | GRAAPTFDS | not detected | 0/3 |
| GFTWNSYGIS | VIYSDGRRNFYGDSVK | GRAAGTADS | 4.69 | 2/3 |
| GFTLNSYGIS | EIYSIGRRPFYGDSVK | GRAAGTFDS | 5.25 | 2/3 |
| GMTLNKYGIS | VIYSDGRPTFYGDSVK | GRAAGTFDS | not detected | 0/3 |
| GFTLNSYGIH | NIYSDGRRTFYGDSVK | GYAAGTFDS | not detected | 0/3 |
| GFTLNSYGIS | VIGSDMRRTFYGDSVK | GRAKGTFDS | not detected | 0/3 |
| GFTFNSYTIS | VIYSDGRRTFYGDSVK | GRAAETFDS | not detected | 0/3 |
| GFSLNSYGID | VIYSDGRRHFYGDSVK | GRAAGTFDS | 4.63 | 2/3 |
| GFTLNSYGIS | VIYSDGRRTFDTDSVK | GRYAGTFDS | 2.69 | 3/3 |
| GFTLNQYGIS | VIYSDGRWTFYGDSVK | GCAAGTFDS | 6.07 | 1/3 |
| GFTLNSYGIS | VIYSDCRRTFYGDSVK | GRAAETFDS | not detected | 0/3 |
| GFTLNSYGIS | VIYSDGRRTFPGDSVK | GPAQGTFDS | not detected | 0/3 |
| ALTLNSYGIF | VIYSDGRRTFYGDSVK | GRAAGTFDS | 3.60 | 1/3 |
| GFTLNSYGES | VIYSDGYRTFYGPSVK | GRAAGTFDS | not detected | 0/3 |
| GFTLNSYGIS | VIVSDGRYTFYGDSVK | QRAAGTFDS | not detected | 0/3 |
| GFSLNSYGIS | VWYSDGRRTFYGDSVK | GRAAGTFGS | not detected | 0/3 |
| GFTLNSYGIS | VAYSDGRPTIYGDSVK | GRAAGTFDS | not detected | 0/3 |
| GFTLNSYGIS | VIYSDGRRTFYGDSVK | QRAAGTFSS | not detected | 0/3 |
| GFTLNSYGII | VWYSDGRRTFYGDSVK | GRAAGTWDS | not detected | 0/3 |
| HFTLLSYGIF | VIYSDGRRTFYGDSVK | GRAAGTFDS | not detected | 0/3 |
| GFTLNSYGIS | VIYSDGYRDFYGDSVK | GRAAQTFDS | not detected | 0/3 |
| GFKLNSYGIS | VIYKDGRRTFYGDSVG | GRAAGTFDS | not detected | 0/3 |
| GFNLNSYGIS | VIYSDGERTFYGDSVK | GRAAGGFDS | 4.94 | 1/3 |
| GFTLVSYGIS | VIYSVGRRTFYGDNVK | GRAAGTFDS | not detected | 0/3 |
| GFTLNSYLIS | VIYSDGRRTFYGMSVK | GRAAGTADS | not detected | 0/3 |
| SFTLNSYGIS | VIYSDGRRCFYGDSVK | GPAAGTFDS | 5.63 | 3/3 |
| GFKLNSYGIS | VIYSDGRRTFYGDSVK | GRAAGTWDE | 3.15 | 1/3 |
| VFTLNSDSIS | VIYSDGRRTFYGDSVK | GRAAGTFDS | not detected | 0/3 |
| GFTLNSYGID | VIYSDGSRTFYGDSVK | GRAAGKFDS | not detected | 0/3 |
| GFTLNSYGGS | VIYSDGRRTFYGDSNK | NRAAGTFDS | not detected | 0/3 |
| GFTLESYHIS | VIYSDGRRTFYGDSVK | GRAAGTFDS | not detected | 0/3 |
| GLTLNHYGIS | VIYKDGRRTFYGDSVK | GRAAGTFDS | 4.19 | 1/3 |
| GFTLNSYRIS | VIYSDGRRTFYGDSVK | QRAAGAFDS | not detected | 0/3 |
| GFTLNSYGIS | VIISDGARTFYGDRVK | GRAAGTFDS | not detected | 0/3 |
| GFTLNSYGIS | VIYSDERRTFYGCSVK | GTAAGTFDS | 4.54 | 2/3 |
| GFTLASYGIS | VIYSDGRRTFDGDSVK | GRAAGTFDS | 4.34 | 2/3 |
| GFTLNDYGIS | VIYSDGRRLFYGDSVK | GRAAGTIDS | 5.19 | 1/3 |
| GFTLNSYGIS | VIYSDGRQTSYGDSVK | GRAAGTFDS | 1.98 | 3/3 |

A selection of 7 entries from above:

| CDR-H1 | CDR-H2 | CDR-H3 | mean, log10 nM | detected |
|---|---|---|---|---|
| GFTLNSYGIS | VIYVDGRRTFYMDSVK | GRAAGTFDS | 2.51 | 3/3 |
| GFTLNSYGIS | VIGSDMRRTFYGDSVK | GRAKGTFDS | not detected | 0/3 |
| GFTLNSYGIS | VIYSDGRRTDYGDSFK | GVAAGTFDS | 4.51 | 3/3 |
| GFKLNIYGIS | VIYSDGERTFYGDSVK | GRAAGTFDS | 1.99 | 3/3 |
| GFTLNSYGIS | VKYSDGRRTFYGDSVK | TRAAGYFDS | 2.97 | 1/3 |
| VFTLNSDSIS | VIYSDGRRTFYGDSVK | GRAAGTFDS | not detected | 0/3 |
| GFTLNSYGIS | VIYRDGRRTFYGGSPK | GRAAGTFDS | not detected | 0/3 |

Empty control strains, which show no peptide, gave a signal in 15% of pairings with library AAYL49; the median was 4.06 and 95% of these signals were weaker than 2.83. No background was subtracted.

Data: MIT Lincoln Laboratory AlphaSeq set, Engelhart et al. 2022, doi:10.1038/s41597-022-01779-4, as distributed in FLAb.